In US20080221114A1, “2-(Cyclic Aminocarbonyl) Indoline Derivative and Medicinal Composition Containing the Same” (priority 2005, published 2008) one finds IC50 data, which are given here for three compounds.

Chains of the proteins cited; added tags and fusions are not shown.
UniProt P16257, whole entry: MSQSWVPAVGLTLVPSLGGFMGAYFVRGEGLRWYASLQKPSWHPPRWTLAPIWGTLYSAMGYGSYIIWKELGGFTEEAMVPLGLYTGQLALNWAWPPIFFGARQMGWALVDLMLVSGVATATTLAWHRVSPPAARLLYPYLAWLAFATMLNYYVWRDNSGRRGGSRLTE

The experiment deals with mitochondrial benzodiazepine receptor (MBR) (Rattus norvegicus, UniProt P16257). The experiment is described as follows: Binding assay of mitochondrial benzodiazepine receptor (MBR), [3H]4'-chlorodiazepam (Ro5-4864), rat kidney membrane-preparation. The settings on record: rat kidney membranes, [3H]4'-chlorodiazepam 0.5 nM, 0° C. for 150 minutes.
`O=C(C1Cc2ccccc2N1c1ncccn1)N1CCCCCC1` (racemic): the concentration for half-maximal inhibition (IC50) (in general, the concentration that gives 50% inhibition) worked out at 6.5 nM.
For `CC1CCN(C(=O)[C@@H]2Cc3ccccc3N2c2ccc(=O)n(C)n2)CC1`, the IC50 was found to be 30.9 nM.
Under `CCC1CCN(C(=O)[C@@H]2Cc3ccccc3N2c2ccc(=O)n(C)n2)CC1` stands 13.3 nM.
